# Antibody variant affinities, Ab-91 heavy chain, assay 2

Source: Engelhart et al. 2022 (doi:10.1038/s41597-022-01779-4), MIT Lincoln Laboratory and A-Alpha Bio; data file from the FLAb repository.

Target: peptide PDVDLGDISGINAS, taken from heptad repeat 2 (HR2) of SARS-CoV-2 spike.

The variants keep the light chain, the linker and the frameworks of Ab-91 (scFv order VL, a 15-residue (Gly4Ser)3 linker, VH).
VL: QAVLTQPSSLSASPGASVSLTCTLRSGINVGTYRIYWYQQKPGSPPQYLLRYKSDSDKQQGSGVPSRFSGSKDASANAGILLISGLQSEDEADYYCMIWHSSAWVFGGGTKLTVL
VH: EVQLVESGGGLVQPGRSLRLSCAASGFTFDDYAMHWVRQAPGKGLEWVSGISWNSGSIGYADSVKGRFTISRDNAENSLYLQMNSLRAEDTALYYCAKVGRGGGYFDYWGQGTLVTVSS

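The parent was found by panning a naive human phage display library on the peptide. Library AAYL51 holds single substitutions and randomly drawn double and triple substitutions in the CDRs. The scFvs were displayed on barcoded MATa yeast, the peptide on MATalpha yeast. Binding brings cells together so that they mate, and sequencing counts the barcode pairs among the diploids. A regression on co-assayed BCL2-family reference pairs converts the normalised counts of each replicate to an apparent Kd. There are three technical replicates.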

Positions count from residue 1 of the parent VH; H35R puts R in place of H. Scale: log10 of Kd in nM, estimated from mating counts; low values are strong binders. Replicates are averaged; those with no signal do not enter the mean. Where no diploid with the target was found in any replicate, the entry reads "no signal": below detection, most likely a poor binder, though not proof of it. Background: pairings of library AAYL51 with three empty control strains gave a value in 21% of cases (median 4.54, 5th percentile 3.26). Values in that range, when seen in few replicates, are hard to tell from nonspecific mating. Also given: how often the same scFv was detected with the empty control strains.

changes	mean log10 Kd (nM)	seen in	empty controls
H35R/G104N	no signal	0 of 3	1 of 9
D62W/Y108G	3.99	2 of 3	0 of 9
W53H/S57A/D62I	no signal	0 of 3	1 of 9
I51R/S57I/G104N	5.06	1 of 3	1 of 9
I51R/S55I/G104C	4.77	1 of 3	1 of 9
N54F/S55Q/G104I	no signal	0 of 3	0 of 9
G26V/D31W/R101T	no signal	0 of 3	1 of 9
Y32T/G50W/D107S	no signal	0 of 3	0 of 9
G26D/S63L	no signal	0 of 3	3 of 9
G56Q/S57T/G59L	no signal	0 of 3	3 of 9
G26L/A33F/Y60P	4.88	2 of 3	7 of 9
S52C/S57W/G104K	no signal	0 of 3	0 of 9
G26D/F29C/G102E	no signal	0 of 3	1 of 9
M34I/K65L/G104F	3.77	1 of 3	5 of 9
G56I/F106M	1.09	3 of 3	3 of 9
D30V/R101Q/Y108N	3.73	3 of 3	7 of 9
I51M/S55Y/V64G	5.70	1 of 3	3 of 9
Y32Q/A33K/A61D	no signal	0 of 3	0 of 9
Y32I/S63Y/R101W	4.88	1 of 3	3 of 9
G26Y/H35R/S57F	no signal	0 of 3	0 of 9
F27C/I51L	3.25	1 of 3	1 of 9
G26P/G59L/V99R	no signal	0 of 3	0 of 9
D31V/I58Y/V99W	no signal	0 of 3	0 of 9
N54G/S57T/A61D	4.12	2 of 3	3 of 9
S55N/G59S	no signal	0 of 3	1 of 9
I51K/Y105E	no signal	0 of 3	0 of 9

The remaining entries, values ahead:

mean log10 Kd (nM)	seen in	empty controls	changes
no signal	0 of 3	0 of 9	W53M/S63K/R101V
5.05	2 of 3	3 of 9	G26L/A33K/I58A
4.16	2 of 3	3 of 9	W53R/F106V
4.34	1 of 3	0 of 9	M34F/S52L/R101Y
no signal	0 of 3	0 of 9	G56W/G100K/Y108A
5.18	2 of 3	8 of 9	G59W/F106C
4.18	3 of 3	5 of 9	T28D/F106K
5.80	3 of 3	4 of 9	G26N/T28N/H35G
3.93	3 of 3	4 of 9	D30N/S52Q/G104Q
5.13	1 of 3	5 of 9	G50C/W53K/G56T
no signal	0 of 3	3 of 9	G50I/S57G/K65Q
5.39	3 of 3	9 of 9	S57T/V64W/Y108A
no signal	0 of 3	0 of 9	D30T/A33Y/S52G
2.97	3 of 3	6 of 9	D31L/A61R/G100V
4.85	3 of 3	3 of 9	F27N/A33K/K65W
no signal	0 of 3	0 of 9	A33M/G56L/G59K
4.17	2 of 3	2 of 9	A33K/V99Q
4.67	2 of 3	7 of 9	F27L/I51V/D107R
5.05	3 of 3	6 of 9	D30N/Y60I/D107I
no signal	0 of 3	1 of 9	H35D/D62L/Y108F
no signal	0 of 3	1 of 9	H35S/G56T/R101V
2.81	3 of 3	5 of 9	D30R/S63F
3.50	1 of 3	1 of 9	Y60W/D107V
5.01	2 of 3	3 of 9	T28S/D31L/F106A
4.93	1 of 3	3 of 9	W53R/V99G/F106Q
no signal	0 of 3	0 of 9	S52Y/I58W/R101Y

Again, the first 6 entries without any signal:

{"changes": "H35R/G104N", "mean log10 Kd (nM)": "no signal", "seen in": "0 of 3", "empty controls": "1 of 9"}
{"changes": "W53H/S57A/D62I", "mean log10 Kd (nM)": "no signal", "seen in": "0 of 3", "empty controls": "1 of 9"}
{"changes": "N54F/S55Q/G104I", "mean log10 Kd (nM)": "no signal", "seen in": "0 of 3", "empty controls": "0 of 9"}
{"changes": "G26V/D31W/R101T", "mean log10 Kd (nM)": "no signal", "seen in": "0 of 3", "empty controls": "1 of 9"}
{"changes": "Y32T/G50W/D107S", "mean log10 Kd (nM)": "no signal", "seen in": "0 of 3", "empty controls": "0 of 9"}
{"changes": "G26D/S63L", "mean log10 Kd (nM)": "no signal", "seen in": "0 of 3", "empty controls": "3 of 9"}

In this assay the parent's reference entry averaged 1.86; its copy inside this library read 0.88.